Reference: patent US20250059202A1, “CRYSTAL FORM OF FUSED RING DERIVATIVE, AND PREPARATION METHOD THEREFOR AND USE THEREOF” (SHANGHAI YINGLI PHARMACEUTICAL CO., LTD, priority 2022, published 2025)

What was measured:
Type in all cases: physicochemical
[1] = Competition experiments of crystal form I and crystal form IV in solvents at room temperature; details: 7 days, each tested solvent
[2] = Influencing factor stability test, high temperature (60±2° C.); details: 10 days
[3] = Influencing factor stability test, high humidity (25° C., RH92.5±5%); details: 10 days
[4] = Influencing factor stability test, light (4500±500 Lux, 25° C.); details: 10 days

SMILES: CC(C)(Cc1cc2c(-c3ccc(C#N)cc3)cncc2s1)C(=O)O [crystal form I, 3-[4-(4-Cyanophenyl)thieno[2,3-c]pyridin-2-yl]-2,2-dimethylpropanoic acid]
- relative stability of crystal forms [1]: superior to that of the crystal form IV
- change of the assessment indexes compared with the sample before treatment [2]: no significant change
- change of the assessment indexes compared with the sample before treatment [3]: no significant change
- change of the assessment indexes compared with the sample before treatment [4]: no significant change
